Laboratory results published in patent publication US20100255006A1 (Takeda / Millennium, published 2010).

Target: T1, PYRIN-8 truncation mutant lacking the PYRIN domain (PYRIN-8ΔPYRIN, residues 89-1061 of SEQ ID NO:18) with a … (human, UniProt P59046 89-1061)
T1 construct: Expressed from pCI (Promega) in transfected cells
T1 sequence: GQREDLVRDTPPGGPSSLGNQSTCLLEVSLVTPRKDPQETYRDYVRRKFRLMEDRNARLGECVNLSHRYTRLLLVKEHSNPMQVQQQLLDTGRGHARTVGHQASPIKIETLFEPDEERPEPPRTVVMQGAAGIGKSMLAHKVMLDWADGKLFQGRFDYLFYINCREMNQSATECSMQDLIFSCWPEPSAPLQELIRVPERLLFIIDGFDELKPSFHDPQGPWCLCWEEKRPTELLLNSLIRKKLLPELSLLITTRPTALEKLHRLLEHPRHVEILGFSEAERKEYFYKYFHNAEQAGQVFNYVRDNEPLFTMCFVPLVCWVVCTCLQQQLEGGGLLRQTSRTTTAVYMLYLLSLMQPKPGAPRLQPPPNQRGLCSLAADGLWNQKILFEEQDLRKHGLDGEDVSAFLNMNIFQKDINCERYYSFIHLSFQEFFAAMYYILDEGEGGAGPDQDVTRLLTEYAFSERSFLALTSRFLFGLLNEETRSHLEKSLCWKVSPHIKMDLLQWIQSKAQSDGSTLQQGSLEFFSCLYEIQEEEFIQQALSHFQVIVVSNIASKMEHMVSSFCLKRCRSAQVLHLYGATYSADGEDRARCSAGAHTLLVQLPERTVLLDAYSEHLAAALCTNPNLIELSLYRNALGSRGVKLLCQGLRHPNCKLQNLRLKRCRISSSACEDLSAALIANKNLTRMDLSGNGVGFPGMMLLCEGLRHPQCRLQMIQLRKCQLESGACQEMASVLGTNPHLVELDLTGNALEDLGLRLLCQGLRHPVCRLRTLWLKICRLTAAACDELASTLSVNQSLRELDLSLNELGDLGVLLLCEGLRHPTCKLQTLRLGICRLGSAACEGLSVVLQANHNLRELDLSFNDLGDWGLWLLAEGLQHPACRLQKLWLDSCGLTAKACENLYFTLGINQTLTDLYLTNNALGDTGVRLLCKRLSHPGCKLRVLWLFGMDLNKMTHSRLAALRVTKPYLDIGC
Assay: co-localization by immunostaining in co-transfected 293T cells
Experimental: Cellular co-localization studies were carried out to determine whether PYRIN-8 interacts with CARD-5 (also known as ASC) when the two proteins were overexpressed in 293T embryonic kidney cells. Plasmids expressing either full-length PYRIN-8 (PYRIN-8-FL, residues 1-1061 of SEQ ID NO:18) or a PYRIN-8 truncation mutant lacking the PYRIN domain (PYRIN-8ΔPYRIN, residues 89-1061 of SEQ ID NO:18) with a C-terminal FLAG epitope were constructed using pCI (Promega). FLAG-tagged PYRIN-8 and HA-tagged CARD-5 were expressed in cells and detected using a mixture of anti-HA and anti-FLAG antibodies.
In immunostaining assays to detect cellular localization, 293T cells were transfected in poly-D-lysine-coated glass chamber slides (BioCoat, Becton-Dickinson Labware) with plasmids expressing HA-tagged CARD-5 and either FLAG-tagged PYRIN-8 or PYRIN-8ΔPYRIN using SuperFect transfection reagent (Qiagen). Cells were fixed 24 hours after transfection in 4% paraformaldehyde, permeabilized and blocked in a buffer containing 0.3% Triton X-100, and incubated with the following primary and secondary antibodies: rabbit anti-HA polyclonal Y-11 (Santa Cruz Biotechnology), mouse anti-FLAG monoclonal antibody M2 (Sigma), Alexa-350 goat anti-rabbit IgG (Molecular Probes), and Alexa-598 goat anti-mouse IgG (Molecular Probes). […]

B1: HA-tagged CARD-5 (other, UniProt Q9ULZ3 1-195, looked up, not shown: small tags and cut ends)
chain: MGRARDAILDALENLTAEELKKFKLKLLSVPLREGYGRIPRGALLSMDALDLTDKLVSFYLETYGAELTANVLRDMGLQEMAGQLQAATHQGSGAAPAGIQAPPQSAAKPGLHFIDQHRAALIARVTNVEWLLDALYGKVLTDEQYQAVRAEPTNPSKMRKLFSFTPAWNWTCKDLLLQALRESQSYLVEDLERS
notes: also called ASC; CARD-5 (ASC)
- binding result: no binding
